This is one part of the list.
T1: LIN28A (human?, UniProt Q9H9Z2 1-209)
T1 sequence: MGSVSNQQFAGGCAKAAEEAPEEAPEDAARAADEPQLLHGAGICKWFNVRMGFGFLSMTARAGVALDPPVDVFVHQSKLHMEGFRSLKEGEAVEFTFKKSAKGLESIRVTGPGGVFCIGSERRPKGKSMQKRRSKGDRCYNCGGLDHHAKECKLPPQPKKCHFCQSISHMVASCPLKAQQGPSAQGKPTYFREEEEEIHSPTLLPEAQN

T2: CIRBP (Homo sapiens, UniProt Q14011 1-172)
T2 sequence: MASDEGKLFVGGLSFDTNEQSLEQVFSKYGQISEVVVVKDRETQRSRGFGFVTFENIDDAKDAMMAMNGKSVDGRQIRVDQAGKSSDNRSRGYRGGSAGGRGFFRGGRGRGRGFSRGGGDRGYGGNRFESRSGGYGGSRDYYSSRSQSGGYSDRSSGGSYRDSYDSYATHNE

T3: DHX36 (Homo sapiens, UniProt Q9H2U1 1-1008)
T3 sequence: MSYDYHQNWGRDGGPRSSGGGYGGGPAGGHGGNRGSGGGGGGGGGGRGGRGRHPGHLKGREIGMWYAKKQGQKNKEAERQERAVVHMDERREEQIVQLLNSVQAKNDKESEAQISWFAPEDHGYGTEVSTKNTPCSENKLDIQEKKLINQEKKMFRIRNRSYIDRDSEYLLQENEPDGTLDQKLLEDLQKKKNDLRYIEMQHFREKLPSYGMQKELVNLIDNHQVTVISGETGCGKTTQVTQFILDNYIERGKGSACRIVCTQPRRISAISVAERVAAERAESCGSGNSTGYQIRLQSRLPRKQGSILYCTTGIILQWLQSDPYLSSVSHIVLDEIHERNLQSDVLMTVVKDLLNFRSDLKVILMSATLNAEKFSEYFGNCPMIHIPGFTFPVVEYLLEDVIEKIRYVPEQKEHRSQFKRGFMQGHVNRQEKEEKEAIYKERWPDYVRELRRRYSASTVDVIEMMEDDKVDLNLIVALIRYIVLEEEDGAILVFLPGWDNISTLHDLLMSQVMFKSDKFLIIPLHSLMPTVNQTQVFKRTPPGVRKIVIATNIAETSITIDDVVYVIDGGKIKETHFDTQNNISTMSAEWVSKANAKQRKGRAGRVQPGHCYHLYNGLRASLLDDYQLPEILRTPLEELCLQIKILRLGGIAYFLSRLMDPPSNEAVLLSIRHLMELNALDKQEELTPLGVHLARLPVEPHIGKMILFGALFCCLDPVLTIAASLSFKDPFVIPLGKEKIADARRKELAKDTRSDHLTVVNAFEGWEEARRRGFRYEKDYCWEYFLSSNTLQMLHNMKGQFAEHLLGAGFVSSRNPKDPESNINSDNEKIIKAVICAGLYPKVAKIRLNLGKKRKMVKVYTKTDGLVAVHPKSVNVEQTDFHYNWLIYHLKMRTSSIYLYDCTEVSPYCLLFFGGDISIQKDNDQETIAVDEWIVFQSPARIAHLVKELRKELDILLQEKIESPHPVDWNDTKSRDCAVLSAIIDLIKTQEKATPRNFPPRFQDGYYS

B1: hsa-mir-4291 (structured_RNA)
RNA: GGGAAGUCCUAUCUUCAGCCGGAAGCAGGGUGUACGAAGUUUCAGCAGCUGGGUGGAGGCAGAGCUGCUGAAGCUUCGUGCAC
B2: hsa-mir-6790 (structured_RNA)
RNA: GGGAGAUUGAUGGGAGAACGAUCACUUUGGUGUACGAAGUUUCAGCGUUCGGGGGUUCCGACGGCGACGCUGAAGCUUCGUGCAC
B3: hsa-mir-1323 (structured_RNA)
RNA: GGGAAUCCAUGUAGGACCUGCGGAGAUAGGUGUACGAAGUUUCAGCUUCUGUGGUUUGAAAGGAAGCUGAAGCUUCGUGCAC
B4: NEAT1_ParasoR_ID1 (structured_RNA)
RNA: GGGAUACCUUGCGUCCGAAGUUCUACCGGGUGUACGAAGUUUCAGCGGUUGGUGACACUGUUUUGUGAGAUGGGUUGAAAGCACGUGCUGCCAAAAUAGAAUAAUGUUGGUCCUCUCCGCUGAAGCUUCGUGCAC
B5: hsa-mir-4708 (structured_RNA)
RNA: GGGAAAGACUUGGUUCCCUGGGUACACCGGUGUACGAAGUUUCAGCUGCUCCUUGAACAGGAGGAGCAGCUGAAGCUUCGUGCAC
B6: hsa-mir-379 (structured_RNA)
RNA: GGGCAUCCUAUGGAUUCCCAGAUGCGGCGGUGUACGAAGUUUCAGCCGUAGGCGUUAUGAUUUCUGACCUAUGGCUGAAGCUUCGUGCAC
B7: hsa-mir-3945 (structured_RNA)
RNA: GGGAACGUACUAGUAUCUCUGGGUAGCAGGUGUACGAAGUUUCAGCAUAUAAAAUGCAAUUAGCUGAAGCUUCGUGCAC
B8: hsa-mir-6755 (structured_RNA)
RNA: GGGACCGAGAAGGAAUUGGUUCUAUGACGGUGUACGAAGUUUCAGCAACGUUAUGUGUGGUCUUUAACCUGUUGCUGAAGCUUCGUGCAC
B9: hsa-mir-4251 (structured_RNA)
RNA: GGGACGUCAUAACACGGCGAAAACUAAGGGUGUACGAAGUUUCAGCAGUGGCCAAUUCCUGCUGAAGCUUCGUGCAC
B10: hsa-mir-6853 (structured_RNA)
RNA: GGGAAAGCGUCUUAGCCGGAAAGGGUCAGGUGUACGAAGUUUCAGCGUCAGGUGAUGGUGAUAAGGUCAAGGCCUGGCUGAAGCUUCGUGCAC
B11: hsa-mir-4653 (structured_RNA)
RNA: GGGAAGAUACGUCUCGUAUGAACUUGCAGGUGUACGAAGUUUCAGCCACCAAAGGGUUAAGGGUUUGCUCUGGAGGCUGAAGCUUCGUGCAC
B12: hsa-mir-647 (structured_RNA)
RNA: GGGAAGUCGUCAUAGCAACUACAACGAUGGUGUACGAAGUUUCAGCCUUCAGCCCCAGGAAGCCUUGGUCGGGGGCAGGAGGCUGAAGCUUCGUGCAC
B13: hsa-mir-378i (structured_RNA)
RNA: GGGAUAAAAGACGAGGUAUCAAUCUGCAGGUGUACGAAGUUUCAGCAAGGUGGAGUUCUGGGUGCUGUUUUCCCACUCUGCUGAAGCUUCGUGCAC
B14: hsa-mir-664b (structured_RNA)
RNA: GGGAAGUACCGACUGACAUUCCUCGGCUGGUGUACGAAGUUUCAGCUGGGUAGAAAGUAUUAUUCUAUUCAGCUGAAGCUUCGUGCAC
B15: hsa-mir-1293 (structured_RNA)
RNA: GGGACAAACUACUGCGUCUAGGAAUGAUGGUGUACGAAGUUUCAGCGUGCAGCUUGUACCUGCACGCUGAAGCUUCGUGCAC
B16: hsa-mir-4497 (structured_RNA)
RNA: GGGAAGGUGUUGACCCUUAGUAACCAGAGGUGUACGAAGUUUCAGCGGGCGCCGGCGGCCGGGAGAUCCGCGCUUCCUGAAUCCCGGCCGGCCCGCCCGGCGCCCGCUGAAGCUUCGUGCAC
B17: hsa-mir-153-2 (structured_RNA)
RNA: GGGAGGUGGGAGAUUACGUAUUCGCGUAGGUGUACGAAGUUUCAGCGCAGCUAGUAAUAUGAGCCCAGUUGCGCUGAAGCUUCGUGCAC
B18: hsa-mir-29b-1 (structured_RNA)
RNA: GGGAACAGCCUGGCGGUAUUAAACUGUGGGUGUACGAAGUUUCAGCUUUAGAUUUAAAUAGUGAUUGUCUAGGCUGAAGCUUCGUGCAC
B19: hsa-mir-4463 (structured_RNA)
RNA: GGGAACAGUACGGUUCGAACACGACGCCGGUGUACGAAGUUUCAGCUUUCUGAAUUUGUGAGAGCUGAAGCUUCGUGCAC
B20: hsa-mir-361 (structured_RNA)
RNA: GGGAAAGGCCGAUCUACGUUUAGCAAGAGGUGUACGAAGUUUCAGCGGUACUUUAUAAUUUCAAAAAGUCCCGCUGAAGCUUCGUGCAC
B21: hsa-mir-4452 (structured_RNA)
RNA: GGGACCCGCAUCUACCCUUCAUACUGAGGGUGUACGAAGUUUCAGCGCAAGGCUGUAGUGUGCACAGCCUUGAGCUGAAGCUUCGUGCAC
B22: hsa-mir-3687-1_3687-2 (structured_RNA)
RNA: GGGAUGUUGCUCCCCGGGAUACAGACAAGGUGUACGAAGUUUCAGCCGGUGGUCCCUCCCGGCUGAAGCUUCGUGCAC
B23: hsa-mir-129-2 (structured_RNA)
RNA: GGGAAUAAUUGGCCCGUGUGACCCAUUCGGUGUACGAAGUUUCAGCGCUUGCUGUACAUAACUCAAUAGCCGGAAGCGCUGAAGCUUCGUGCAC
B24: hsa-mir-181b-1 (structured_RNA)
RNA: GGGACACGGAGGGAGAAAUGAAGCGUAAGGUGUACGAAGUUUCAGCUGGGUUGAACUGUGUGGACAAGCUCAGCUGAAGCUUCGUGCAC
B25: hsa-mir-4324 (structured_RNA)
RNA: GGGAAACUGGAGAUCGUGCAAAUUCGAGGGUGUACGAAGUUUCAGCCAGGGAACUUUAAAACCGCUGAAGCUUCGUGCAC

Each binder was assayed against T1, LIN28A (assay: FOREST: bead pull-down of RNA structure library v1, barcode microarray; U1A/LIN28A: 20 mM HEPES pH 7.5, 80 mM KCl, 20 mM NaCl, 10% glycerol, 2 mM DTT, 0.1 ug/uL BSA, 4 C; BG4/CIRBP/DHX36: 10 mM Tris-HCl pH 7.5, 100 mM KCl (or LiCl),; high values mean tight binding).

Binder	binding signal [z-score]
B1	1.25
B2	1.13
B3	1.14
B4	1.25
B5	1.13
B6	1.25
B7	1.21
B8	1.12
B9	1.23
B10	1.26
B11	1.12
B12	1.16
B13	1.2
B14	1.12
B15	1.14
B16	1.21
B17	1.22
B18	1.19
B19	1.17
B20	1.2
B21	1.14
B22	1.25
B23	1.16
B24	1.22
B25	1.23

The binders below were run against T2, CIRBP in the same assay as above.

Binder	binding signal [z-score]
B1	2.09
B2	1.66
B3	1.22
B4	-0.0563
B5	0.801
B6	-0.783
B7	1.11
B8	0.197
B9	0.107
B10	0.0457
B11	1.01
B12	-0.509
B13	2.84
B14	1.32
B15	0.178
B16	-0.293
B17	0.126
B18	-0.331
B19	-0.094
B20	1.51
B21	0.828
B22	0.486
B23	0.424
B24	1.77
B25	2.02

The binders below were run against T3, DHX36 in the same assay as above.

Binder	binding signal [z-score]
B1	2.39
B2	2.04
B3	-0.305
B4	0.249
B5	-0.292
B6	-1.39
B7	-0.685
B8	-0.375
B9	-0.468
B10	0.104
B11	0.127
B12	0.191
B13	1.36
B14	-0.328
B15	1.13
B16	1.1
B17	0.483
B18	0.197
B19	-0.572
B20	0.067
B21	-0.968
B22	0.565
B23	0.633
B24	0.521
B25	0.332

From PMC7723054
